This note sets out measurements from patent publication US20220041538A1, “CA[…] ACID AND SALTS THEREOF” (EMERALD HEALTH PHARMACEUTICALS INC, priority 2018, published 2022).

What all share (format): in vivo
One assay relates to 3NP-intoxicated mice. Kind of assay: 3NP murine model of Huntington's disease, behavioral score. Particulars: oral and intraperitoneal; I 10 mg/Kg both routes; sodium salt 30 mg/Kg oral, 10 mg/Kg i.p.; tested form: sodium salt. How it is done: Mice were subjected to behavioral tests for determining their neurological status after the treatment with oral cannabigerol quinone acid (I) (10 mg/Kg dissolved in sesame oil) and after intraperitoneal delivery (10 mg/Kg dissolved in ethanol/cremophor/saline). Hind limb clasping, Locomotor activity, and kyphosis were rated from 0 to 2 based on severity: a score of 0 typically indicates normal function and 2 seriously affected.
Mice were subjected to behavioral tests for determining their neurological status after the treatment with oral sodium salt of the cannabigerol quinone acid (30 mg/Kg dissolved saline) and after intraperitoneal delivery (10 mg/Kg dissolved in saline). Hind limb clasping, Locomotor activity, and kyphosis were rated from 0 to 2 based on severity: a score of 0 typically indicates normal function and 2 seriously affected. […]
Lesions of the striatum were induced with 3-NP in adult (16-week-old; 30 g) male C57BL/6 mice (Harlan Ibérica, Barcelona, Spain). […] We evaluated the general locomotor activity, the hindlimb clasping and dystonia, and the truncal dystonia. […]

The subject of assay [1] is striatum of 3NP-intoxicated mice. Kind of assay: Histological analysis of striatum in 3NP model (Nissl staining, Iba-1 immunostaining). Particulars: oral and intraperitoneal; tested form: sodium salt. An excerpt:
Loss of neurons in the striatum (Nissl staining) and Iba1 (microglia marker) were detected by immunostaining in the coronal sections of striatum of mice treated with vehicle, 3NP+ vehicle, 3NP+ compound I (oral and intraperitoneal). Quantification of Nissl staining (A) and Iba1 (B) positive cells in the mouse striatum. Total average number of neurons and microglia is shown.
Quantification of Nissl staining (A) and Iba1 (B) positive cells in the mouse striatum. Total average number of neurons and microglia is shown.
Brains from 3NP model were fixed in 4% paraformaldehyde and 5-μm-thick sections for Nissl staining and immunohistochemical analysis of Iba-1, a marker of microglial cells. For immunohistochemistry sections were incubated overnight at 4° C. with monoclonal anti-mouse Iba-1 antibody (Millipore, Mass., USA) used at 1/50 dilution. After incubation with the corresponding primary antibody, sections were washed in 0.1 M PBS and incubated O/N at 4° C. with goat anti-mouse (Millipore, Mass., USA) secondary antibody. […] Negative control sections were obtained using the same protocol with omission of the primary antibody. All sections for each immunohistochemical procedure were processed at the same time and under the same conditions. […]

The test system of the next assay is 6-OHDA challenged mice. The assay is described as follows: 6-OHDA murine model of Parkinson's disease (pole test, cylinder rearing test). Conditions: oral or intraperitoneal, 14 days; tested form: sodium salt. How it is done: C57BL/6 mice were unilaterally injected intracerebroventricullarly with 6-hydroxydopamine (6-OHDA) or saline (control mice) and subjected to chronic intraperitoneal treatment with cannabigerol quinone acid (1) (oral […] in sesame oil, and intraperitoneal 10 mg/Kg in Tween80/Saline ( 1/16)) or vehicle (14 days), starting 16 h after the 6-OHDA injection. SHAM group corresponds to mice subjected to the surgical manipulation without injection of 6-OHDA. Motor coordination was evaluated by rotarod performance and motor activity was evaluated using a computer-aided actimeter. A: pole test results after oral treatment, B: cylinder rearing test results after oral treatment, C: pole test results after intraperitoneal treatment, D: cylinder rearing test results after intraperitoneal treatment.
Motor coordination was evaluated by rotarod performance and motor activity was evaluated using a computer-aided actimeter. A: pole test results after oral treatment, B: cylinder rearing test results after oral treatment, C: pole test results after intraperitoneal treatment, D: cylinder rearing test results after intraperitoneal treatment.
C57BL/6 mice pretreated intracerebroventricularly were anesthetized with an intraperitoneal injection of 200 mg/Kg of 2,2,2-tribromoethanol (Sigma-Aldrich) and placed in a stereotaxic frame with a mouse adapter (David Kopf Instruments, Tujunga, Calif., USA). […]
The pole test was used to detect bradykinesia and motor and cylinder rearing test to evaluate sensory-motor deficits in PD mice. For Pole test mice were placed head-upward on the top of a vertical rough-surfaced pole (diameter 8 mm; height 55 cm) and the time until animals descended to the floor was recorded with a maximum duration of 90 s. […] For Cylinder Rearing Test (CRT) the initial forepaw (left, right, or both) preference after placing the mouse in a methacrylate transparent cylinder of 15.5 cm in diameter and 12.7 cm in height was measured. […]

As to `CCCCCC1=C(C(=O)O)C(=O)C(C/C=C(\C)CCC=C(C)C)=C(O)C1=O` [I, cannabigerol quinone acid], the “clinical symptoms induced by 3-NP intoxication (behavioral score: hind limb clasping, locomotor activity, kyphosis)” value in the assay on 3NP-intoxicated mice is given as “clearly alleviates the clinical symptoms”. In assay [1], the “reactive microgliosis (Iba-1+ cells)” value is reported as “prevented the induction of reactive microgliosis” and the “striatal neurons (Nissl staining) against 3NP toxicity” value was “preservation of striatal neurons”. Besides, in the assay on 6-OHDA challenged mice, the “bradykinesia (pole test)” value is given as “attenuated”, the “clinical symptoms in 6-OH-DA challenged mice” value is given as “alleviates clinical symptoms” and the “motor deficit (cylinder rearing test)” value is given as “attenuated”.
